The values that follow come from patent US20140193463A1, “PEPTIDE FOR INHIBITING DIPEPTIDYL-PEPTIDASE IV” (CHINA MEDICAL UNIVERSITY, priority 2013, published 2014).

The chains behind the UniProt entries cited, without tags or fusion partners. Where a name states a change or a piece, a line headed by the entry shows the natural chain unless it says otherwise.
UniProt P22411: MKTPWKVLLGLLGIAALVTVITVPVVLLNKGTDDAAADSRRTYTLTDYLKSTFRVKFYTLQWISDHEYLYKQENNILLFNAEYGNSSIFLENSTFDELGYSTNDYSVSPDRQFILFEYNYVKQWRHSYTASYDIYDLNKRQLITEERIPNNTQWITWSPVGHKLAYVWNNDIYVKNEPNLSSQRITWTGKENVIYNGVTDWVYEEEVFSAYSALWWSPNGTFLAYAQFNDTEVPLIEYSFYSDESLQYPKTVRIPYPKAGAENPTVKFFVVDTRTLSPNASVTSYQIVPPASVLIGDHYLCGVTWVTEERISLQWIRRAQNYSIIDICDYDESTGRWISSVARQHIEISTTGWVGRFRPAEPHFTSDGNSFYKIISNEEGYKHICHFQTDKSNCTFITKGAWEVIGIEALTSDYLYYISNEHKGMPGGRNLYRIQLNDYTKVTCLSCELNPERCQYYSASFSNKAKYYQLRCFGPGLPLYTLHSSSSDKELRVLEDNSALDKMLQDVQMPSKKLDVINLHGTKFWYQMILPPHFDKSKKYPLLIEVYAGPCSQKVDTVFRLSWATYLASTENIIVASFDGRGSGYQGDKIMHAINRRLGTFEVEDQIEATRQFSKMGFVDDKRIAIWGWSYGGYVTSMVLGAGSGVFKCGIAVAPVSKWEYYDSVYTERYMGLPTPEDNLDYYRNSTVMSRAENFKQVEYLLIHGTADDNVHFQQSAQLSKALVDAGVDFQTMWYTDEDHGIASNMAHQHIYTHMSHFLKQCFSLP
UniProt P27487, whole entry, species assumed: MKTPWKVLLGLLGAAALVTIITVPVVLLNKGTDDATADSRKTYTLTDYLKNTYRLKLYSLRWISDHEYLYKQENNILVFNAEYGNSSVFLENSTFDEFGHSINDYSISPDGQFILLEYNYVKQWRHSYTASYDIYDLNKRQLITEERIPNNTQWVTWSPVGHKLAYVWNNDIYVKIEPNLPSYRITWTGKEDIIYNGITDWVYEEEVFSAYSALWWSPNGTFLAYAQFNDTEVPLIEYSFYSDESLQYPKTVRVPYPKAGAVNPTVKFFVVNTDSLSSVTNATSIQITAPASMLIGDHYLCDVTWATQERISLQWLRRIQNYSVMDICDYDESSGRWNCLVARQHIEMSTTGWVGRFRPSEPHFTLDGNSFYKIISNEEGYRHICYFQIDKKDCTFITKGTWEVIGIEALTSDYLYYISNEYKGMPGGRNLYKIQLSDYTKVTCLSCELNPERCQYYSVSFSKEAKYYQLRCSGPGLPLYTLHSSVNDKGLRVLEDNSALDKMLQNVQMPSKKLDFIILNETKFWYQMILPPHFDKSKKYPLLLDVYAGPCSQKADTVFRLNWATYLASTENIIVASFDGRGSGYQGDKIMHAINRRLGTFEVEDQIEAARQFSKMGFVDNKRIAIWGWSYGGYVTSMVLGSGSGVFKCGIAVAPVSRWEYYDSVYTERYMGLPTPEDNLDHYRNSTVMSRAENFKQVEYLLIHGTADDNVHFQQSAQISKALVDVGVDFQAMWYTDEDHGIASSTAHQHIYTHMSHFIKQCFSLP

SMILES strings stand for the structures. ≈ marks a conversion by molar mass, not a printed value. Where two headings read alike, the source gives them in different places.

The target in assay [1] is T1, Dipeptidyl-peptidase IV (D7052, from porcine kidney) (Sus scrofa, UniProt P22411).
T1 construct: Dipeptidyl-peptidase IV (D7052, from porcine kidney); purchased Sigma-Aldrich D7052; host or cells: porcine kidney (tissue-derived)
Nature of the assay: Determination of DPP-IV-inhibitory activity (Gly-Pro-p-nitroanilide substrate, absorbance 405 nm). Type of assay: biochemical. The following applies: synthetic peptides and diprotin A, present example (FIG. 4A-4C). As for the experimental part:
Atlantic salmon (Salmo salar) fish skins, processing byproducts recovered from fresh skin-off fillets, were supplied by Albion Fisheries Ltd. (Vancouver, BC, Canada). The fish skins were transferred on ice, vacuum packed, and stored at −25° C. until use. Three food-grade proteolytic enzymes were donated by Neova Technologies Inc. (Abbotsford, BC, Canada). Alcalase 2.4 L FG (from Bacillus licheniformis, 2.4 AU/g) and Flavourzyme 1000 L (from Aspergillus oryzae, 1000 LAPU/g) were products from Novo-zymes North America Inc. (Salem, N.C., […]), whereas bromelain (from pineapple stem, 2000 GDU/g) was manufactured by Ultra Bio-Logics Inc. (Montreal, QC, Canada), Dipeptidyl-peptidase IV (D7052, from porcine kidney), Gly-Prop-nitroanilide hydrochloride, trichloroacetic acid (TCA), L-leucine, and diprotin A were purchased from Sigma-Aldrich (St. Louis, Mo.). Trinitrobenzenesulfonic acid (TNBS) was obtained from Fluka Biochemika Oakville ON, Canada). Other chemicals and reagents used were of analytical grade and commercially available,
DPP-IV activity determination was performed in 96-well microplates. In order to measure an increment in absorbance at 405 nm, Gly-Pro-p-nitroanilide is used as a DPP-IV substrate. […] The absorbance of the resulting solution was measured at 405 nm with a microplate reader (iEMS reader MF; Labsystems, Helsinki, Finland). […]

A further assay deals with DPP-IV (Homo sapiens, UniProt P27487). The conditions noted are these: cited from earlier work.

As usually defined, the IC50 is the concentration that inhibits the measured activity by half. Turning to `CC[C@H](C)[C@H](N)C(=O)N1CCC[C@H]1C(=O)N[C@H](C(=O)O)[C@@H](C)CC` [diprotin A, Ile-Pro-Ile], the IC50 in assay [1] was 24.7 µM; on DPP-IV (previous studies, read-out: IC50 values against DPP-IV), 3.2 µM; at DPP-IV (reported by Patent WO 2006/068480, read-out: IC50 value against DPP-IV) it was roughly 5 µM. Also, the “IC50 values, inhibitory activity on DPP-IV” value on DPP-IV (isolated from culture filtrates of Bacillus cereus BMF673-RF1, related art) was 1.1 µg/mL (≈ 3.22 µM).
